Screening data as filed in PubChem BioAssay.
Sampled rows, rich in hits. Any-hit rate of the full collection: about 1.2%.
UUG fidelity: modulators of start codon recognition fidelity in yeast; S. cerevisiae UUG-firefly luciferase reporter, luminescence/redox ratio; activity score, % at 18.7 µM; hit rate 0.13% among 350,000; AID 602363;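 active = replicate mean at a twofold rise or more, about +100% in these data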;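 note: firefly luciferase made from a UUG start codon reports start codon fidelity; reporter light over untreated wells divided by growth signal over untreated wells; some hits fall short of that in this replicate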
Arr AP2 block: inhibitors of beta-arrestin/AP2 binding, primary screen, biochemical, GPCR trafficking, flow cytometry | beta-arrestin 1 C-terminal peptide binding to AP2 beta2-adaptin appendage (human) | FITC-arrestin peptide / GST-AP2 beads; AP2 beta2 appendage carries R879A mutation | inhibition, % at 10 µM | actives 0.31% (n = 340,000) | AID 504490, 2011;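 active = inhibition above a set limit, near 3 SD of compounds lacking own fluorescence, cut at about 54% in these data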;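 also: plate controls were DMSO wells for no effect and 5 µM unlabelled arrestin peptide for full effect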
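Material – GST-tagged AP2 beta2-adaptin appendage (R879A) on 4 µm glutathione beads · Probe or stimulus – fluorescein-tagged arrestin peptide at 50 nM final · Timing – 12 min plus 1 h, RT · Detection – bead flow cytometry, FITC channel · Read-out basis – inhibition as reduced fluorescein signal on beads, percent · Medium – PBS plus Tween 20 (0.05%) and BSA (0.1%)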
Pemphigus Ab inh: inhibitors of pemphigus antibody binding to DSG3, primary screen, biochemical, bead-based, flow cytometry, scFv-GFP. DSG3-coupled beads, scFv-anti-DSG3-GFP binding; hits give low values. binding (percent of control), % at 10 µM. actives 0.48% (n = 310,000). Desmoglein-3 (Homo sapiens), P32926;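 active = binding more than 3 SD below its plate's average and above zero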;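 also: hits lower antibody fragment binding to DSG3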
Rce1 inh: yeast Rce1p protease inhibitors, primary screen, biochemical, fluorescence, cell-free homogeneous; CAAX prenyl protease 2 (Saccharomyces cerevisiae (strain ATCC 204508 / S288c)), Q03530; yeast membranes, quenched prenylated peptide cleavage fluorescence; calls only; actives 0.27% (n = 290,000);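 active = fall in fluorescence gain of 50% or more versus controls, with final raw signal at or below 3038400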;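 also: plate controls were neutral control wells for no effect and wells lacking membranes for full effect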
Tb MetRS inh: T. brucei MetRS inhibitors, primary screen, biochemical, luminescence. actives 0.4% (n = 360,000). purified T. brucei MetRS, ATP depletion, Kinase-Glo luminescence. inhibition, % at 11.9 µM. AID 624268, 2012;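 active = inhibition above a per-plate cutoff of the control wells' mean inhibition plus 3 SD, cut at about 5.5% in these data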;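 also: 0% = DMSO wells median and 100% = median of wells with control inhibitor compound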
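Material: parasite MetRS enzyme / Replication: singlicate, one well per compound / Signal: luminescence of leftover ATP / Schedule: 2 h aminoacylation at 25 °C after 15 min preincubation / Medium: HEPES-MgCl2-KCl buffer plus DTT, spermine, BSA, pyrophosphatase / Doses: 11.9 µM single point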
* hit, by the source's call.

What do the screens show for `CC(C)NC(=O)Nc1cccc2c1O[C@@H](CN(C)S(=O)(=O)c1ccc(F)cc1)[C@H](C)CN([C@H](C)CO)C2=O`?
UUG fidelity: 3.1

What do the screens show for `Cc1noc(C)c1S(=O)(=O)Nc1ccc2c(c1)C(=O)N([C@@H](C)CO)C[C@@H](C)[C@@H](CN(C)Cc1ccc(C(=O)O)cc1)OCCCC[C@@H](C)O2`?
UUG fidelity: 5.0

How did C#CCn1cc(/C=N/Nc2nc3ccccc3[nH]2)c2ccccc21 do in these assays?
Arr AP2 block: 6.7; Pemphigus Ab inh: 100.9; Rce1 inh: inactive; Tb MetRS inh: 9.0*

How did C(=N\Nc1nc2ccccc2[nH]1)/c1ccccn1 do in these assays?
Arr AP2 block: 2.0; Pemphigus Ab inh: 98.9; Rce1 inh: inactive; Tb MetRS inh: -2.0

How did CCCN(C)C[C@H]1OCCCC[C@@H](C)Oc2ccc(NS(=O)(=O)c3ccccc3)cc2C(=O)N([C@H](C)CO)C[C@H]1C do in these assays?
UUG fidelity: 14.7

How did Cc1cccc(Nc2ccccc2C(=O)OCC(=O)N(C)C2CCS(=O)(=O)C2)c1C (stereo not given) do in these assays?
UUG fidelity: -7.0; Arr AP2 block: 0.7; Pemphigus Ab inh: 93.5; Rce1 inh: active; Tb MetRS inh: 0.3

Results for CN(C(=O)COC(=O)c1cc([N+](=O)[O-])ccc1Sc1ccccc1)C1CCS(=O)(=O)C1 (stereo not given) ?
UUG fidelity: 0.0; Arr AP2 block: -2.0; Pemphigus Ab inh: 101.6; Rce1 inh: active; Tb MetRS inh: -0.7

What do the screens show for `COc1ccc(NC(=O)Nc2cccc3c2O[C@H](CN(C)CC2CCCCC2)[C@@H](C)CN([C@H](C)CO)C3=O)cc1`?
UUG fidelity: 3.5

How did CCCCCc1c(C)nc(Nc2ccccc2)[nH]c1=O do in these assays?
UUG fidelity: -5.1; Arr AP2 block: 0.9; Pemphigus Ab inh: 101.7; Rce1 inh: inactive; Tb MetRS inh: 7.8*

What do the screens show for `C[C@H](CO)N1C[C@H](C)[C@H](CN(C)Cc2ccc3c(c2)OCO3)OCCCC[C@H](C)Oc2ccc(NS(=O)(=O)c3cccs3)cc2C1=O`?
UUG fidelity: 42.4

How did Cc1cccc(Cn2cnc3c(nnn3Cc3ccc(Cl)cc3)c2=O)c1 do in these assays?
UUG fidelity: 1.0; Arr AP2 block: -3.4; Pemphigus Ab inh: 91.0; Rce1 inh: inactive; Tb MetRS inh: -1.2

What do the screens show for `Cc1ccc(Cn2cnc3c(nnn3Cc3ccc(Cl)cc3)c2=O)cc1`?
UUG fidelity: -5.3; Arr AP2 block: 3.5; Pemphigus Ab inh: 73.2*; Rce1 inh: inactive; Tb MetRS inh: -0.3

Results for CCOC(=O)c1[nH]c2cc3c(cc2c1CCCN1C(=O)c2ccccc2C1=O)OCCO3 ?
UUG fidelity: 4.5; Arr AP2 block: 1.0; Pemphigus Ab inh: -28.9*; Rce1 inh: inactive; Tb MetRS inh: 0.2

How did CCOC(=O)c1[nH]c2ccccc2c1CCCN1C(=O)c2ccccc2C1=O do in these assays?
UUG fidelity: -9.4; Arr AP2 block: 11.2; Rce1 inh: inactive; Tb MetRS inh: -1.2

How did O=C(Cc1ccccn1)N[C@H]1CC[C@H](CCn2cc(-c3cccnc3)nn2)O[C@@H]1CO do in these assays?
UUG fidelity: -7.1

Results for CCCCCCSc1cc(-c2nc3cc(C)ccn3c2NCCCC)ccc1OC ?
UUG fidelity: -11.8; Arr AP2 block: -4.2; Pemphigus Ab inh: 111.0; Rce1 inh: active; Tb MetRS inh: 0.3

Results for CCCCNc1c(-c2ccc(SC(C)CC)c(OC)c2)nc2ccc(C)cn12 (stereo not given) ?
UUG fidelity: -23.5; Arr AP2 block: -11.8; Pemphigus Ab inh: 109.8; Rce1 inh: active; Tb MetRS inh: -0.1

How did COc1ccc([Si](C)(C)[C@@H]2[C@@H](CCn3cc(CCO)nn3)O[C@]3(C(=O)N(c4ccccc4)c4ccccc43)[C@H]2C)cc1 do in these assays?
UUG fidelity: 9.3

How did CCCC(=O)Nc1ccc2c(c1)C(=O)N(C)C[C@@H](OC)[C@H](C)CN(Cc1cncnc1)[C@@H](C)CO2 do in these assays?
UUG fidelity: 2.9

A run of entries taken from the entries so far, as a working copy:
How did COc1ccc([Si](C)(C)[C@@H]2[C@@H](CCn3cc(CCO)nn3)O[C@]3(C(=O)N(c4ccccc4)c4ccccc43)[C@H]2C)cc1 do in these assays?
UUG fidelity: 9.3

How did CCCC(=O)Nc1ccc2c(c1)C(=O)N(C)C[C@@H](OC)[C@H](C)CN(Cc1cncnc1)[C@@H](C)CO2 do in these assays?
UUG fidelity: 2.9
